Data on 1 compound can be found in patent US10370388B2, “Heterocyclic compounds and methods of their use” (NOVARTIS AG, priority 2012, dated 2019).

Protein sequences, listed by entry. Tags and fused reporters are not part of them.
UniProt P50052, whole entry: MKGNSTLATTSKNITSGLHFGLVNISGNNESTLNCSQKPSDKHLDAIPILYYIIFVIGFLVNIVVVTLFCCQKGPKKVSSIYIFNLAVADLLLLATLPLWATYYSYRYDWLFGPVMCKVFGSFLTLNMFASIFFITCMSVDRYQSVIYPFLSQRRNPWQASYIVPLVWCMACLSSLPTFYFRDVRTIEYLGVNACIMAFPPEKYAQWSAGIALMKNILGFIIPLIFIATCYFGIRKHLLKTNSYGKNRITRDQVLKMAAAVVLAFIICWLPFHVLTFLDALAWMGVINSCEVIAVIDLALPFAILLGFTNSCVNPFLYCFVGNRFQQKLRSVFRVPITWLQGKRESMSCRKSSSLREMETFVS

In the assay the target is AT2 receptor (Homo sapiens (Human), UniProt P50052). In words: AT2 receptor binding assay ([125I]-CGP42112A, HEK293/AT2 receptor cell membranes). The settings on record: displacement of [125I]-CGP42112A. (Displacement assays read how much labelled ligand stays bound in the presence of the test substance.)

One may read the IC50 as the point on the concentration scale where inhibition reaches its midpoint. `O=C(O)[C@@H]1C[C@H](N2CCCC(c3ccccc3)C2)CN1C(=O)C(c1ccccc1)c1ccccc1` (stereo partly shown) gave an IC50 of 0.0673 µM.
